# Assay results reported in US9708557B2, “Process for the treatment of liquefied hydrocarbon gas using 2-amino-2(hydroxymethyl) propane-1,3-diol compounds” (Dow Global Technologies LLC, priority 2012, dated 2017).
# Assay: physchem
smiles,measurement,value
"NC(CO)(CO)CO [TA, 2-amino-2-(hydroxymethyl)propane-1,3-diol]",pKa,8.3
